# Test results: BindingDB's records for doi:10.1007/bf00168557 (Boehringer Ingelheim Italia, 1995)
# Amino acid sequences for entries named in this document (tags omitted). A change or cut given only in a name is not applied to a line headed by its entry.
# UniProt P28564, whole entry: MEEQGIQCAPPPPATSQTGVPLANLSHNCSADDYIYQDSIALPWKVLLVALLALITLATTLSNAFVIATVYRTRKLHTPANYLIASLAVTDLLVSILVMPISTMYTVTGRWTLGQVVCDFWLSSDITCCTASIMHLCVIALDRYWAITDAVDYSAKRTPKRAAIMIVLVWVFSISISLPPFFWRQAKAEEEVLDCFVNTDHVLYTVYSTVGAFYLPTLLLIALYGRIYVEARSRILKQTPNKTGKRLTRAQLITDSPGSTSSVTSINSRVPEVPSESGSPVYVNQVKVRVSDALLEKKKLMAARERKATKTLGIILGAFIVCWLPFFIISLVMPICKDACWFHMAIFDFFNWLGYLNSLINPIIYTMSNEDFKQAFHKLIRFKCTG
# UniProt P28565: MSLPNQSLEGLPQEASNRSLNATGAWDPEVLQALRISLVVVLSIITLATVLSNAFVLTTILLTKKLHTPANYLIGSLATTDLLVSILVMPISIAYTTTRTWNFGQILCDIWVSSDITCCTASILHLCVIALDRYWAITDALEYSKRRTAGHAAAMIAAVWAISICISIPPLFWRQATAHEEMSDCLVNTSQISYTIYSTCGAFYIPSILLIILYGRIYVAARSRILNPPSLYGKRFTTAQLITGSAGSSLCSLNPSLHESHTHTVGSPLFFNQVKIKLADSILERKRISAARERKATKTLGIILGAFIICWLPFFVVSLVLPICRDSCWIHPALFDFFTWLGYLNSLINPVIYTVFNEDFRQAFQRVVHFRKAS
# Columns and labels:
# [1] = molecular target: 5-hydroxytryptamine receptor 1B (Rattus norvegicus, UniProt P28564)
# [2] = molecular target: 5-hydroxytryptamine receptor 1D (Rattus norvegicus, UniProt P28565)
smiles,measurement,setting,value
CCCN(CCC)C1CCc2cccc(O)c2C1 (configuration not stated),Ki,[1],7.24 µM
same,Ki,[2],0.955 µM
